1 molecule from US20250243196A1, “CITRON KINASE INHIBITORS” (The Cleveland Clinic Foundation, priority 2021, published 2025) can be followed below.

Protein sequences, listed by entry. Tags and fused reporters are not part of them. Lines headed by an entry give the natural chain unless they say otherwise; changes in a name come on top.
UniProt Q8NE63: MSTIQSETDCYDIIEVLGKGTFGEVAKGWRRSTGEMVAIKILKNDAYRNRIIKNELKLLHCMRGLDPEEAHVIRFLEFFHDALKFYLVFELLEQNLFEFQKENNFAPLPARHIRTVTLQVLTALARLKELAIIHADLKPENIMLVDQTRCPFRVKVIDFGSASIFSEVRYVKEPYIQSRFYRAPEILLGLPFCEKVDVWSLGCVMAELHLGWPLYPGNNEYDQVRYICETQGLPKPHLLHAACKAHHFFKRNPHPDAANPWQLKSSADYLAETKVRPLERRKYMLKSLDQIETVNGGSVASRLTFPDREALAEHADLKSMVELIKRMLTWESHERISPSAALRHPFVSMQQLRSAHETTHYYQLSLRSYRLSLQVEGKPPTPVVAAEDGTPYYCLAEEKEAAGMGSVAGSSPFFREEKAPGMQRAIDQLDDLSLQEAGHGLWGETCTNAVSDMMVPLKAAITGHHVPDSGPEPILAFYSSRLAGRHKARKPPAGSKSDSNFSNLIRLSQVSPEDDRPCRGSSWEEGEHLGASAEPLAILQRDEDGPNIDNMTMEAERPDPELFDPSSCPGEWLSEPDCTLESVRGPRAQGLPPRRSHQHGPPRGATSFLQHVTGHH
UniProt Q2M2I8: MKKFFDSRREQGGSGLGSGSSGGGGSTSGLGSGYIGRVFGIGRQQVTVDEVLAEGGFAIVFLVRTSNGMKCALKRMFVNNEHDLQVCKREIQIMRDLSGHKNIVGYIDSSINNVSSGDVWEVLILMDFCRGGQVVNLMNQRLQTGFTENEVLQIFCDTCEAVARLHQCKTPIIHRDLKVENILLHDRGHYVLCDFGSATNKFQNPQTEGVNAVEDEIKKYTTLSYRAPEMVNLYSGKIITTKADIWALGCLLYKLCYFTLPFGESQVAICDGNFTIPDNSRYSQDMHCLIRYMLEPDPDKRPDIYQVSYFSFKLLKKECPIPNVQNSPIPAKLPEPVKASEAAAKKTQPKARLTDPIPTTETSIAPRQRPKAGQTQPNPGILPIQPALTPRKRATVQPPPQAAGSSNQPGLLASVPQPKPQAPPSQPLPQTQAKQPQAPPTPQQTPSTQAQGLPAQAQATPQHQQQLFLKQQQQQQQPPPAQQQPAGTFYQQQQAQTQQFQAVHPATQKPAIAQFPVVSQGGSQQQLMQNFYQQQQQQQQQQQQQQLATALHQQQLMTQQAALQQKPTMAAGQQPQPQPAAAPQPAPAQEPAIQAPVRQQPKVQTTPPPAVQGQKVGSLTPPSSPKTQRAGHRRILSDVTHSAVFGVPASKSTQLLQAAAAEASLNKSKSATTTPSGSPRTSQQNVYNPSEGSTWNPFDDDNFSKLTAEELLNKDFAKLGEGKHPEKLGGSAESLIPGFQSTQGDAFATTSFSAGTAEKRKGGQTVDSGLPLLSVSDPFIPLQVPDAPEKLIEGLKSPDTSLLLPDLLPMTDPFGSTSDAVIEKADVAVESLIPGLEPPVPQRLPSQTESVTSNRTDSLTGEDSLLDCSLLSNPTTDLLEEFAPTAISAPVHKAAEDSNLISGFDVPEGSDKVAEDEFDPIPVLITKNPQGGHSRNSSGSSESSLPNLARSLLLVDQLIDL
UniProt Q9HBH9: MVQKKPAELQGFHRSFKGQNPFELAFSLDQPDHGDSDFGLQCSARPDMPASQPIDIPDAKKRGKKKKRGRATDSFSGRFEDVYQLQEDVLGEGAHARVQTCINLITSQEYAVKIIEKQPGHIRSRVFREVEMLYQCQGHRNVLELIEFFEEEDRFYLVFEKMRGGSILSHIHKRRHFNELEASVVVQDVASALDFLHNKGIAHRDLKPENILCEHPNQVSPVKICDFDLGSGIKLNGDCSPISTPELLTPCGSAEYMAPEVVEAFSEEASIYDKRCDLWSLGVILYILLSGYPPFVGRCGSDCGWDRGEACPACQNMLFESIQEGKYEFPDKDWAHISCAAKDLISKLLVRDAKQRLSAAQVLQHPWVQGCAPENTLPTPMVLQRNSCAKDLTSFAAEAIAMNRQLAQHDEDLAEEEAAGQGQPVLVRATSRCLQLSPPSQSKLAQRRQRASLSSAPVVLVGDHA

Among the targets are HIPK4(h) (Homo sapiens (Human), UniProt Q8NE63); AAK1(h) (Homo sapiens (Human), UniProt Q2M2I8); Mnk2(h) (Homo sapiens (Human), UniProt Q9HBH9).
Common to all, as to experiment: KinaseProfiler panel
What all share (type): biochemical
What all share (parameters): dose or concentration left out as unconfirmed
Common to all, as to details: activity remaining

As for `Cc1cc2c(-c3ccc(NC(=O)[C@H](N)CC(C)(C)C)cc3C)ccnc2[nH]1` [Compound F-90, (2R)-2-Amino-4,4-dimethyl-N-[3-methyl-4-(2-methyl-1H-pyrrolo[2,3-b]pyridin-4-yl)phenyl]pentanamide], the “% Activity” value on HIPK4(h) stood at 52%; on AAK1(h), 13%; at Mnk2(h), 35%.
